The values below come from ChEMBL document CHEMBL5126531, “NAE modulators: A potential therapy for gastric carcinoma” (Eur J Med Chem, 2022).

By IC50 is commonly meant the midpoint of a concentration-inhibition curve.

The target of the experiment is Carbonic anhydrase 2 (Homo sapiens, UniProt P00918). The experiment in a line: Inhibition of human erythrocyte carbonic anhydrase 2 using 4-Nitrophenyl acetate as substrate preincubated for 15 mins followed by substrate addition and measured after 30 mins by spectrophotometry. The class given is cell-based.

The structures appear in SMILES notation.

As for `CCOc1cccc(F)c1C#Cc1cn([C@@H]2O[C@H](CNS(N)(=O)=O)[C@@H](O)[C@H]2O)c2ncnc(N)c12`, half-maximal inhibition (IC50) was put at 730 nM.
